Experimental data: PMC6664820, “Novel natural and synthetic inhibitors of solute carriers SGLT1 and SGLT2” (Pharmacology Research & Perspectives, 2019)
Structures can show the parent of a compound that is named as a salt.

Assays:
hSGLT2 = target: T1, hSGLT2 (Homo sapiens, UniProt P31639); experiment: SGLT2 inhibition assay for validation of screening hits and similar compounds (1‐NBD‐glucose uptake, CHO‐hSGLT2 cells)
T1 sequence (P31639 1-672): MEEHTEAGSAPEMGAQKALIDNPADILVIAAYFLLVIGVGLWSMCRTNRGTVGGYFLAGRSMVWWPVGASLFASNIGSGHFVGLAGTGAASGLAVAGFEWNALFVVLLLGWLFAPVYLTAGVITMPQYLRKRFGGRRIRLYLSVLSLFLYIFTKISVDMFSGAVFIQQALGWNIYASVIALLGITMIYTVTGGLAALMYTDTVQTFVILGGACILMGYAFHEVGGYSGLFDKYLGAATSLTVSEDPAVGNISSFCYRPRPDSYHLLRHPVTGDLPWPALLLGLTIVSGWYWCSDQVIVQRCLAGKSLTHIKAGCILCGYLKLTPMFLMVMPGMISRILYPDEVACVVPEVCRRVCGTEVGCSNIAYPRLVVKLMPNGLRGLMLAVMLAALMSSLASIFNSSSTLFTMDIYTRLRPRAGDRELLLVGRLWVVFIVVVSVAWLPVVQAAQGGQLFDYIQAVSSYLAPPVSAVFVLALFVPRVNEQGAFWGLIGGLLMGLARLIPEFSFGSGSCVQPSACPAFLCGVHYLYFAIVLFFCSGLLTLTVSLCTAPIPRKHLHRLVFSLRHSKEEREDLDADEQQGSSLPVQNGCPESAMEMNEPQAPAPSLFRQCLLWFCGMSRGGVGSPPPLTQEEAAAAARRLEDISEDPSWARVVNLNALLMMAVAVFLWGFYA

SGLT1 = target: T2, SGLT1 (Homo sapiens, UniProt P13866); experiment: SGLT1 inhibition assay for validation of screening hits and similar compounds (1‐NBD‐glucose uptake, CHO‐hSGLT1 cells); type: cell-based; design: activity: dose or concentration left out as unconfirmed
T2 sequence (P13866 1-664): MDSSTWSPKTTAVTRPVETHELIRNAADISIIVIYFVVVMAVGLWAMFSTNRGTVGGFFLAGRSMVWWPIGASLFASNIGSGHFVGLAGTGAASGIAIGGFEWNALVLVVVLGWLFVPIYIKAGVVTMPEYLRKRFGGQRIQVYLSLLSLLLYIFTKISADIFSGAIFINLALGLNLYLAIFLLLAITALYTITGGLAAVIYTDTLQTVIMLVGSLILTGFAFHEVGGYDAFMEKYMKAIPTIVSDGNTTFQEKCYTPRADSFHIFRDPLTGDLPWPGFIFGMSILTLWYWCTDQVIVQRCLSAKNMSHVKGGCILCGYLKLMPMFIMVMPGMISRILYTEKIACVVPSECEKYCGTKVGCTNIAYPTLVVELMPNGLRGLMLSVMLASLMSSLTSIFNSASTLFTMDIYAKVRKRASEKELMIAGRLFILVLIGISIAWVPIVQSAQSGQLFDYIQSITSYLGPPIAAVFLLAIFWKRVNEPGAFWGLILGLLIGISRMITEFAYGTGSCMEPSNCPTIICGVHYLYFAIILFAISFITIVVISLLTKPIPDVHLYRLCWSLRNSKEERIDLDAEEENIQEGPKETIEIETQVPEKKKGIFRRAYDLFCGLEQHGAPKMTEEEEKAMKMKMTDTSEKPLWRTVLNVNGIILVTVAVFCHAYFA

**Q.** For `CN1[C@@H]2CC[C@H]1C[C@@H](OC(c1ccccc1)c1ccccc1)C2` [Benztropine mesylate], which “SGLT2/SGLT1 ACTIVITY RATIO 5 uM Mean” value (hSGLT2) is on record?
**A.** The value was 0.9.

**Q.** And the activity (SGLT1; read-out: NORMALIZED SGLT1 ACTIVITY (%) Mean)?
**A.** Its activity is 85%.

**Q.** With `CN[C@H]1CC[C@@H](c2ccc(Cl)c(Cl)c2)c2ccccc21` [Sertraline HCl] as the molecule, how does the “SGLT2/SGLT1 ACTIVITY RATIO, first concentration” value (hSGLT2) read?
**A.** Its value is 0.543.

**Q.** What about the “SGLT2/SGLT1 ACTIVITY RATIO, second concentration” value (hSGLT2) of the same molecule?
**A.** The value was 0.9.

**Q.** With `CN1[C@@H]2CC[C@H]1C[C@@H](OC(c1ccccc1)c1ccccc1)C2` [benztropine] as the molecule, how does the “SGLT1/2 inhibition stated in words” value (SGLT1) read?
**A.** Its value is “novel SGLT1/2 inhibitors”.
